Conditions: 0.1 mg/g subcutaneously
[1] = as early as 30 min after injection

## heavy isotope-labeled leucine (^13C6) [^13C6-Leu]
[1]
  ^13C6-Leu in plasma: present
  ^13C6-Leu in small intestine effluent: present
Up to 2 h
  ^13C6-Leu in cecum: undetectable
  ^13C6-Leu in large intestine: undetectable
